The target of this assay is whole virus influenza neuraminidase, B/Victoria/02/87 (Influenza B virus, UniProt P27907). Conditions: read-out: inhibition constants (IC50), B/Vic/02/87.

The chains behind the UniProt entries cited, without tags or fusion partners.
UniProt P27907, whole entry, looked up: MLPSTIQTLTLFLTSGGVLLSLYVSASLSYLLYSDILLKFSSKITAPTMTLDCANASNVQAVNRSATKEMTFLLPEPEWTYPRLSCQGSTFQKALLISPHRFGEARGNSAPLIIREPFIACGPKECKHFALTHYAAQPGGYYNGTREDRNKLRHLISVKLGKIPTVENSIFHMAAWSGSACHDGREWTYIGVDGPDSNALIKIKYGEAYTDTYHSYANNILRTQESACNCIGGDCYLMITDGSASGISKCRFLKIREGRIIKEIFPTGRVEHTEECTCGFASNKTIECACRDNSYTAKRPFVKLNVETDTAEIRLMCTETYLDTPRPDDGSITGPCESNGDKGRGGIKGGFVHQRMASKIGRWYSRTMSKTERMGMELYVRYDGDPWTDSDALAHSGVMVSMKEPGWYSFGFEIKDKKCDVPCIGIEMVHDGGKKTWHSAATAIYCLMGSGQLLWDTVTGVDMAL

For the substance “GG167-Bovine Serum Albumin-Biotin conjugate [Compound 3a]”, the IC50 is 20 nM.

Values taken from patent publication US6680054B1 (priority 1996, dated 2004).
